Compound activity as filed in PubChem.
PDI inh: inhibitors of human protein disulfide isomerase; PDI insulin aggregation turbidity, A650, 90 min; AID 588391; inhibition, % at 10 µM; 0.052% of 350,000 active; P07237;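 active = mean inhibition across replicates of 30% or more, whatever share of single replicates reach that level; inconclusive = mean inhibition below 30% while every single replicate reaches 30%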
Yeast UUG start: alters start codon recognition fidelity in yeast; S. cerevisiae UUG-firefly luciferase reporter, luminescence/redox ratio; activity score, % at 18.7 µM; hit rate 0.13% among 350,000;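 active = replicate mean at a twofold rise or more, about +100% in these data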;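 also: firefly luciferase made from a UUG start codon reports start codon fidelity; reporter light over untreated wells divided by growth signal over untreated wells; some hits fall short of that in this replicate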
ERp5 block: ERp5 (human) disulfide isomerase inhibition. Q15084. ERp5 insulin aggregation, absorbance 650 nm, 90 min. inhibition, % at 9.99 µM. 0.05% of 350,000 active;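 active = mean replicate inhibition above about 25%, with every replicate also reaching it, limit read from the data, passing the limit was not always enough; inconclusive = only one of those two criteria met; inactive = neither criterion met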
S100A4 MyoIIA: S100A4-myosin IIA interaction inhibition; S100A4/TAMRA-MyoIIA peptide fluorescence polarization; inhibition, % at 10.7 µM; P26447; 0.14% of 360,000 active;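 active = mean inhibition of at least 70% across replicates, with every replicate also reaching that level; inconclusive = mean inhibition reaches 70% but some replicates fall short; inactive = mean inhibition below 70%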
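Assay system: human S100A4 monomer with TAMRA-labelled myosin IIA peptide / Buffer or medium: Calcium-containing HEPES buffer, pH 7.2 / Reagent: TAMRA-labelled myosin IIA heavy-chain peptide probe, 5 nM / Compound: one dose per compound / Timing: polarization read 5 min after assay mix addition, stable 5–60 min / Benchmarks: neutral control DMSO, positive control TFP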
FGF22 binding: binders of recombinant human FGF22 by thermal shift. Q9HCT0. SYPRO orange fluorescence; percent of sucrose octasulfate shift, DMSO zero. activity (Tm shift, normalised), % at 9.99 µM. 1.5% of 340,000 active. AID 651658;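 active = mean Tm shift, scaled 0 neutral to 100 positive control, at about 1.3% or above, every replicate too, limit read from the data; inconclusive = no clear call, values can overlap the other calls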
SIRT5 inh: inhibitors of human sirtuin-5 desuccinylase; inhibition, % at 15 µM; 1.1% of 330,000 active; Purified SirT5, succinyl-peptide AMC, trypsin-coupled fluorescence; Q9NXA8; in the data active = inhibition above about 15%; inconclusive = no clear call, values can overlap the other calls
* hit, by the source's call. Rows were chosen to be rich in hits. Some 2.2% of all compounds tested hit in one or more screens of this group.

Screening O=C1CC(C(=O)N2CCN(c3ccccn3)CC2)CN1Cc1ccccc1Cl (stereo not drawn) returned PDI inh 2, Yeast UUG start -2, ERp5 block -1, S100A4 MyoIIA 185*, FGF22 binding 0 and SIRT5 inh 0.
For CCN(C)Cc1c(C(=O)N2CCc3ccccc3C2)nc2ccc(Cl)cn12 the results were PDI inh -1, ERp5 block -3, S100A4 MyoIIA -13, FGF22 binding 0 and SIRT5 inh -2.
`CN(Cc1c(C(=O)N2CCc3ccccc3C2)nc2ccc(Cl)cn12)C(C1CC1)C1CC1` gave PDI inh -1, ERp5 block 4, S100A4 MyoIIA -1, FGF22 binding 43* and SIRT5 inh -3.
`COc1cc(/C=N/NC(=O)c2nonc2N)cc(OC)c1OC` gave PDI inh 7, Yeast UUG start -11, ERp5 block -5, S100A4 MyoIIA 1, FGF22 binding 0 and SIRT5 inh 18*.
Screening CCOC(=O)C1(Cc2ccccc2C)CCCN(C(=O)c2ccnn2C)C1 (stereo not drawn) returned PDI inh 6, Yeast UUG start -5, ERp5 block 3, S100A4 MyoIIA 1 and SIRT5 inh 14.
Screening CCOC(=O)C1(Cc2ccccc2C)CCCN(C(=O)c2cc(CC)nn2C)C1 (stereo not drawn) returned PDI inh 1, ERp5 block -4, S100A4 MyoIIA 0, FGF22 binding 43* and SIRT5 inh -5.
For C[C@@H]1CCCCO[C@H](CN(C)Cc2ccncc2)[C@H](C)CN([C@@H](C)CO)C(=O)c2cc(NC(=O)CCCN(C)C)ccc2O1 the results were Yeast UUG start -10, ERp5 block 2, S100A4 MyoIIA 18, FGF22 binding 0 and SIRT5 inh -5.
`CSc1nc(C(=O)N2CCc3c([nH]c4ccccc34)C2c2ccccn2)cs1` (stereo not drawn) gave PDI inh 7, Yeast UUG start -7, ERp5 block inconclusive, S100A4 MyoIIA -4, FGF22 binding 0 and SIRT5 inh 6.
`COc1ccc(C2c3[nH]c4ccccc4c3CCN2C(=O)c2cn3ccccc3n2)c(F)c1` (stereo not drawn) gave PDI inh 4, Yeast UUG start -23, ERp5 block 7, S100A4 MyoIIA -1, FGF22 binding 42 and SIRT5 inh -2.
`Cc1ccc2nc(C(=O)N3CCc4c([nH]c5ccccc45)C3c3ccccn3)cn2c1` (stereo not drawn) gave PDI inh -3, Yeast UUG start -10, ERp5 block 4, S100A4 MyoIIA -1, FGF22 binding 43* and SIRT5 inh -2.
O=C(c1cn[nH]c1)N1CCc2c([nH]c3ccccc23)C1c1c(F)cccc1Cl (stereo not drawn) was read as PDI inh -1, ERp5 block 1, S100A4 MyoIIA -2, FGF22 binding 44* and SIRT5 inh 2.
`COc1ccc(C2c3[nH]c4ccccc4c3CCN2C(=O)c2cc3ncccn3n2)c(F)c1` (stereo not drawn) gave PDI inh 1, Yeast UUG start -15, ERp5 block 3, S100A4 MyoIIA 1, FGF22 binding 43* and SIRT5 inh 0.

Two entries drawn at random from the list so far:
`Cc1ccc2nc(C(=O)N3CCc4c([nH]c5ccccc45)C3c3ccccn3)cn2c1` (stereo not drawn) gave PDI inh -3, Yeast UUG start -10, ERp5 block 4, S100A4 MyoIIA -1, FGF22 binding 43* and SIRT5 inh -2.
`COc1ccc(C2c3[nH]c4ccccc4c3CCN2C(=O)c2cc3ncccn3n2)c(F)c1` (stereo not drawn) gave PDI inh 1, Yeast UUG start -15, ERp5 block 3, S100A4 MyoIIA 1, FGF22 binding 43* and SIRT5 inh 0.

Returning to the listing; the 2 compounds before the break are reprinted first.
O=C(c1cn[nH]c1)N1CCc2c([nH]c3ccccc23)C1c1c(F)cccc1Cl (stereo not drawn) was read as PDI inh -1, ERp5 block 1, S100A4 MyoIIA -2, FGF22 binding 44* and SIRT5 inh 2.
`COc1ccc(C2c3[nH]c4ccccc4c3CCN2C(=O)c2cc3ncccn3n2)c(F)c1` (stereo not drawn) gave PDI inh 1, Yeast UUG start -15, ERp5 block 3, S100A4 MyoIIA 1, FGF22 binding 43* and SIRT5 inh 0.
O=C(C[C@@H]1CC[C@@H]2NC[C@@H](O)COC[C@H]2O1)Nc1ccccc1 was read as Yeast UUG start -6, ERp5 block 1, S100A4 MyoIIA 16, FGF22 binding 0 and SIRT5 inh -2.
Screening COc1ccc(NC(=O)N[C@H]2CC[C@H](CCNS(=O)(=O)c3ccccc3F)O[C@@H]2CO)cc1 returned Yeast UUG start 6, ERp5 block 5, S100A4 MyoIIA -18, FGF22 binding 0 and SIRT5 inh 0.
COc1ccc2c3c(n(C)c2c1)[C@H](CO)N(Cc1ccc2c(c1)OCO2)CC31CCN(C(=O)c2ccc3c(c2)OCO3)CC1 was read as FGF22 binding 0.
Screening COCCCNc1ncnc2c1sc1nc(-c3ccco3)c3c(c12)CC(C)(C)OC3 returned PDI inh -2, ERp5 block 0, S100A4 MyoIIA -3, FGF22 binding 0 and SIRT5 inh 19*.
CC1(C)Cc2c(c(-c3ccco3)nc3sc4c(NCCO)ncnc4c23)CO1 was read as PDI inh 0, ERp5 block 2, S100A4 MyoIIA 3, FGF22 binding 43* and SIRT5 inh 10.
Cc1nc2sc3c(NCc4ccco4)ncnc3c2c2c1COC(C)(C)C2 was read as PDI inh 1 and Yeast UUG start 10.
Screening CC(C)Cc1nc2sc3c(NCc4ccco4)ncnc3c2c2c1COC(C)(C)C2 returned PDI inh 18 and Yeast UUG start -18.
C[C@@H]1CCCCO[C@H](CN(C)S(=O)(=O)c2cn(C)cn2)[C@H](C)CN([C@H](C)CO)C(=O)c2cc(NS(=O)(=O)c3ccccc3)ccc2O1 was read as ERp5 block -6, S100A4 MyoIIA -3 and SIRT5 inh 1.
O=S(=O)(c1ccc(F)cc1)N1CCN(Cc2cc3c(cc2Br)OCCO3)CC1 was read as PDI inh -2, Yeast UUG start -1, ERp5 block 8, S100A4 MyoIIA -1, FGF22 binding 0 and SIRT5 inh -2.
Oc1ccc(N2CCN(Cc3cc4c(cc3Br)OCCO4)CC2)cc1 was read as PDI inh 76*, Yeast UUG start -3, ERp5 block 0, S100A4 MyoIIA 2, FGF22 binding -1 and SIRT5 inh 2.
CC(C)OC(=O)c1cccc(C(=O)Oc2ccc(Br)cc2)n1 was read as PDI inh -1 and Yeast UUG start -10.
`CC(C)OC(=O)c1cccc(C(=O)O)n1` gave PDI inh -2, Yeast UUG start -6, ERp5 block -8, S100A4 MyoIIA 6 and SIRT5 inh 19*.
`CO[C@@H]1CN(C)C(=O)c2ccc(NC(=O)C3CC3)cc2OC[C@H](C)NC[C@@H]1C` gave Yeast UUG start 5, ERp5 block -5, S100A4 MyoIIA 4, FGF22 binding 0 and SIRT5 inh 0.
For O=C(/C(=C/O)N=Nc1cccc(C(F)(F)F)c1)c1ccccc1 the results were PDI inh -5, ERp5 block -3, S100A4 MyoIIA 3, FGF22 binding 43* and SIRT5 inh 3.
Cc1cccc(N=N/C(=C\O)C(=O)c2ccc(Br)cc2)c1 was read as PDI inh 3, ERp5 block 0, S100A4 MyoIIA 4, FGF22 binding 0 and SIRT5 inh -4.
CCNS(=O)(=O)c1ccc(CCC(=O)N2CCN(C(=O)OCC)CC2)cc1 was read as PDI inh -2, Yeast UUG start -4, ERp5 block -2, S100A4 MyoIIA 4, FGF22 binding 0 and SIRT5 inh 15*.
